Results on seven substances are retold here after US9725477B2, “Platinum compounds of malonic acid derivative having leaving group containing amino or alkylamino” (BEIJING FSWELCOME TECHNOLOGY DEVELOPMENT CO., LTD, priority 2012, dated 2017).

The nature of the data set: Solubility in water. The conditions noted are these: compound of the example (salt form) in water.
“2-(2-diethylaminobutyl)-malonate•cis-1,2-(1,2-dihydroxymethyl)-ethylenediamine platinum (II) phosphate [Compound 20]”: the solubility entry was “more than 300 mg/ml”. As for “2-(4-di-n-propylaminobutyl)-malonate•cis-diamine platinum (II) phosphate [Compound 7]”, the solubility entry is reported as “more than 300 mg/ml”.

For “2-(4-diethylaminobutyl)-malonate•cis-(1, 2-trans-cyclopropanediamine) platinum (II) phosphate [Compound 16]”, the solubility result is “more than 300 mg/ml”.

Regarding “2-(4-diethylaminobutyl)-malonate•cis-(2-aminomethyl-cyclopentylamine) platinum (II) acetate [Compound 27]”, the solubility result is listed as “more than 300 mg/ml”.

As to “2-(4-diethylaminobutyl)-malonate•cis-ammonia•cyclopentylamine platinum (II) acetate [Compound 26]”, the solubility entry is on record as “more than 300 mg/ml”.

With “2-(4-diethylaminobutyl)-malonate•cis-dicyclopentylamine platinum (II) acetate [Compound 25]”, the solubility result is reported as “more than 300 mg/ml”.

As to “2-(4-ethyl aminobutyl)-malonate•cis-(1, 2-trans-cyclohexanediamine) platinum (II) phosphate [Compound 12]”, the solubility result is “more than 300 mg/ml”.
